The text below walks through data of PubChem BioAssay AID560 (The Scripps Research Institute Molecular Screening Center, 2006).

Chains of the proteins cited; added tags and fusions are not shown.
UniProt P35398, whole entry: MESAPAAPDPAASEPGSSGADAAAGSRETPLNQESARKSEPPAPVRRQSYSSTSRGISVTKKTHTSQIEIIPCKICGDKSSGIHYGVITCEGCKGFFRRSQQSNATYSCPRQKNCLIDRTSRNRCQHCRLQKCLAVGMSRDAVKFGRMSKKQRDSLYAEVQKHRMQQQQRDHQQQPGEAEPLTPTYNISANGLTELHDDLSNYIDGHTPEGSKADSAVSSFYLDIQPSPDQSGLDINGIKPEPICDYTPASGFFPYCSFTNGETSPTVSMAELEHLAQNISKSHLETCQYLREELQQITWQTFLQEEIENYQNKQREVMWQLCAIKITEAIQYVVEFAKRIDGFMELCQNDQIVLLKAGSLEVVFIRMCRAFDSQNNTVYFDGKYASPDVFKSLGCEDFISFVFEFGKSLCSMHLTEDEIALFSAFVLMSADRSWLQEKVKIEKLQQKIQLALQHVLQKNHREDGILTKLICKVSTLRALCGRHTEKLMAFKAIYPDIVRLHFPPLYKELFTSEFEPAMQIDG

This is a selection; strong and weak results do not stand in their true shares. Calls of active or inactive are those of the source.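 How the source made its calls: active means activation above the mean of all tested compounds plus 3 SD (cut at about 49% in these data); inactive means the rest.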

The test concerns the target Nuclear receptor ROR-alpha (Homo sapiens) (UniProt P35398). Put plainly: RORA ligand-binding domain transcriptional activation – cell-based, luminescence, primary screen (AID 560).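 Further: 0% = DMSO-treated RORA cells and 100% = added signal equal to DMSO minus mock-transfected cells.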 The following applies: CHO-K1 Gal4-RORA LBD luciferase reporter, at 10 µM, active compounds read high, percent increase over mock-subtracted basal signal. A general note: In a reporter assay the amount or activity of a reporter protein is the signal.
With `N#CC1(Nc2ccccc2)CCN(CCc2ccccc2)CC1`, the activation was inactive: 3.2%.

As for `O=C(OC1CN2CCC1CC2)C1c2ccccc2Oc2ccccc21` (configuration not stated), the activation is inactive: 0.5%.

With `COc1ccc(NC2CCN(CCc3ccccc3)CC2)c(OC)c1`, the activation is inactive: -18.8%.

As for `Fc1ccccc1NC1CCN(Cc2ccccc2)CC1`, the activation is inactive: -14.4%.

Turning to `CCOc1ncccc1C(=O)NCC1(N2CCOCC2)CCCCC1`, the activation is inactive: -12.7%.

Turning to `CCC(CO)(C(=O)OC1CN2CCC1CC2)c1ccccc1` (configuration not stated), the activation is inactive: -5.1%.

For `N/C(=N\O)c1c(N)no[n+]1[O-]`, the activation was inactive: 10.2%.
